In the test the target is BACE1 (Homo sapiens (Human), UniProt P56817). Kind of test: BACE1 Cell-Free Assay (fluorescence polarization). The test is classed as biochemical. From the text:
Beta-secretase (BACE) is one of the enzymes involved in the generation of the amyloid beta peptide found in the amyloid plaques of Alzheimer's Disease patients. This assay measures the inhibition of the beta-secretase enzyme as it cleaves a non-native peptide.
A synthetic APP substrate that can be cleaved by beta-secretase having N-terminal biotin and made fluorescent by the covalent attachment of Oregon Green at the Cys residue is used to assay beta-secretase activity in the presence or absence of the inhibitory compounds. The substrate is Biotin-[…]^EVEFR-C[Oregon Green]KK-OH. The BACE1 enzyme is affinity purified material from conditioned media of CHO-K1 cells that have been transfected with a soluble BACE construct (BACE1deltaTM96His). Compounds are incubated in a ½ log dose response curve from a top concentration of 100 μM with BACE1 enzyme and the biotinylated fluorescent peptide in 384-well black plates (Thermo Scientific #4318). […] After a 10 minute incubation at room temperature, plates are read on a PerkinElmer EnVision for fluorescence polarization (Ex485 nm/Em530 nm). The activity of the beta-secretase enzyme is detected by changes in the fluorescence polarization that occur when the substrate is cleaved by the enzyme.
For orientation: Fluorescence polarisation rises when a labelled molecule tumbles more slowly, as on binding a larger partner.

Chains of the proteins cited; added tags and fusions are not shown. Residues count along the entry.
UniProt P56817, 46-457: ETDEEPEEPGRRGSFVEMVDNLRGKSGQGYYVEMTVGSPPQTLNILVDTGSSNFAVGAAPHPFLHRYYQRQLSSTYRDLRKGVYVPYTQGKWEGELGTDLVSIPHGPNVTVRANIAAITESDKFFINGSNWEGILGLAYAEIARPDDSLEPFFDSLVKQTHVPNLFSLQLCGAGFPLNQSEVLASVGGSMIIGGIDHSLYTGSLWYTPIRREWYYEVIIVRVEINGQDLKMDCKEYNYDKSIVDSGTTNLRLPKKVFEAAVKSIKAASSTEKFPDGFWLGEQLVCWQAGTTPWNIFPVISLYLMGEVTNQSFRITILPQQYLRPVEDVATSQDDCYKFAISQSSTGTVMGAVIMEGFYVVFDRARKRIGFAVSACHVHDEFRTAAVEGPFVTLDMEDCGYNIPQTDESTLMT

Each structure is given as a SMILES string. Where two headings read alike, the source gives them in different places.

Consider `C[C@H]1C[C@H]2CSC(N)=N[C@@]2(c2cc(NC(=O)c3ccc(C#N)cn3)cs2)CO1` [Comparator 5, reference compound], for which the IC50 (as a rule, the midpoint of a concentration-inhibition curve) (Table 4, read-out: BACE1 Cell Free IC50) stood at 19 nM.
On to `CC#CCn1ccc(C(=O)Nc2csc([C@]34CO[C@@H](C)C[C@H]3CSC(N)=N4)n2)n1` [Example 92, N-{2-[(4aR,6S,8aR)-2-amino-6-methyl-4,4a,5,6-tetrahydropyrano[3,4-d][1,3]thiazin-8a(8H)-yl]-1,3-thiazol-4-yl}-1-(but-2-yn-1-yl)-1H-pyrazole-3-carboxamide], for which the IC50 (geometric mean of 2-4 determinations unless otherwise indicated (b: ≧5; c: single determination), read-out: BACE1 Cell-free Assay IC50) turned out to be 82 nM.

Source of the values: patent publication US9315520B2, “2-amino-6-methyl-4,4a,5,6-tetrahydropyrano[3,4-d][1,3]thiazin-8a(8H)-yl-1,3-thiazol-4-yl amides” (Pfizer Inc., priority 2014, dated 2016).
